This is a selection; strong and weak results do not stand in their true shares. The source made the active and inactive calls.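 How the source made its calls: active means inhibition above a set limit, 3 SD over the mean compound inhibition (cut at about 44% in these data); inactive means the rest.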

The nature of this assay: growth inhibitors of yeast BB579 in restrictive medium, primary screen, yeast lifespan-shortening project, S. cerevisiae (AID 804). Particulars: OD615, 48 h, at 10 µM, hits give high values.
Turning to `O=P1(Nc2ccccn2)COc2ccccc2OC1`, the inhibition – broadly, the drop in the measured response relative to a control, in per cent – was inactive: 11.3%.
Consider `Clc1n[nH]nc1-c1nn[nH][15n]1`, for which the inhibition is inactive: -1%.
Under `Cc1nn(-c2ccccc2)c2c1P(=O)(N1CCOCC1)N(C)C(c1ccccc1)=N2` (stereo not drawn) stands inactive: -32.9%.
Regarding `O=P1(Nc2ncccn2)COc2ccccc2OC1`, the inhibition was inactive: -56.8%.
As for `Cc1ccc(OCC(=O)OC2CN3CCC2CC3)cc1` (stereo not drawn), the figure is inactive: -60.3%; as for `O=P1(Nc2ccc(Br)cn2)COc2ccccc2OC1`, inactive: -34%; as for `CCOP1(=S)c2c(C)nn(CCC#N)c2N=C(c2ccccc2F)N1C` (stereo not drawn), inactive: -29%.
Under `O=P(Nc1nccs1)(c1ccccc1)c1nc2ccccc2s1` (stereo not drawn) stands inactive: 7.07%.
Under `O=[N+]([O-])c1ccc2c(c1)nnn2O` stands inactive: -35.8%.
`CCOP1(=S)c2c(C)nn(CCC#N)c2N=C(c2ccc(F)cc2)N1C` (stereo not drawn): the inhibition is inactive: -13.1%.
As for `Cc1cccc(OCC(=O)OC2CN3CCC2CC3)c1` (stereo not drawn), the figure is inactive: -44.6%; as for `Cc1ccc(NCCc2c([N+](=O)[O-])cc([N+](=O)[O-])cc2[N+](=O)[O-])cc1`, inactive: -67.1%.
Under `COc1cc(C2NCCC3(OCCO3)C2(C)C)cc(OC)c1OC` (stereo not drawn) stands inactive: 6.47%.
Turning to `CCOP(=O)(Nc1cccc2ccccc12)OCC`, the inhibition is inactive: -62.8%.
As for `O=C(OC1CN2CCC1CC2)C12CC3CC(CC(C3)C1)C2` (stereo not drawn), the figure is inactive: -51.4%.
Under `Cc1c2c(nc3ccccc13)SC(C(Cl)Cl)C2` (stereo not drawn) stands inactive: -2.79%; under `Cc1ccc2nc3c(c(C)c2c1)CC(C(Cl)Cl)S3` (stereo not drawn), inactive: -8.72%.
Under `ClCCSc1nnc(-c2cccnc2)o1` stands inactive: -0.48%; under `CCN(CC)C(=S)SC(NC=O)C(Cl)(Cl)Cl` (stereo not drawn), inactive: -35.4%.
For `O=[N+]([O-])c1cc([N+](=O)[O-])c(-c2ccn[nH]2)s1`, the inhibition is active: 76.4%.
As for `Cc1cc(SC(NC(=O)c2ccccc2)C(Cl)(Cl)Cl)nc(C(C)C)n1` (stereo not drawn), the figure is inactive: -33.5%.
As for `COP1(=S)c2c(C)nn(CCC#N)c2N=C(c2ccc(F)cc2)N1C` (stereo not drawn), the figure is inactive: -49.4%; as for `O=C(COc1ccccc1)OC1CN2CCC1CC2` (stereo not drawn), inactive: -17.1%; as for `CCC(C)N(CC(C)C)C(=S)SC(NC(C)=O)C(Cl)(Cl)Cl` (stereo not drawn), inactive: -14.9%.
Turning to `CC(=O)N1C2C3N(C(C)=O)C1C1N(C(C)=O)C(C(N1C(C)=O)N3C(C)=O)N2C(C)=O`, the inhibition is inactive: 3.31%.
Under `O=[N+]([O-])c1cccc2n[nH]nc12` stands inactive: -51.5%.
Turning to `CCc1nc2c(n1)c1c(non1O)c1c2no[n+]1[O-]`, the inhibition was inactive: -3.68%.
For `CN(C)C(=O)OCCc1n(C)cc[n+]1C`, the inhibition was inactive: -15.9%.
`CC1CCN(C(=O)Oc2c(Cl)cc(Cl)c3cccnc23)CC1`: the inhibition is inactive: -14.7%.
Consider `Cc1cc(SC(NC(=O)c2ccc(F)cc2)C(Cl)(Cl)Cl)ncn1` (stereo not drawn), for which the inhibition was inactive: -26.4%.
Under `CCOP(=O)(Nc1ccccc1)OCC` stands inactive: -68.8%; under `CCN(N=Nc1nonc1N)c1nonc1N`, inactive: -19.1%; under `CN1CCCC(OC(=O)C(c2ccccc2)c2ccccc2)C1` (stereo not drawn), inactive: 2.24%.
With `CC(C)CC(=O)NC(Sc1ccc(Cl)cc1)C(Cl)(Cl)Cl` (stereo not drawn), the inhibition was inactive: -53.5%.
As for `Oc1ccccc1CNc1ccccn1`, the figure is inactive: -11.9%.
Under `O=C(NC(Sc1ccncn1)C(Cl)(Cl)Cl)c1ccccc1` (stereo not drawn) stands inactive: -43%; under `Cc1c2non([O-])c-2c(C)[n+](=O)[n+]1[O-]`, inactive: -3.26%.
With `O=P1(Nc2nc3ccc(Cl)cc3s2)COc2ccccc2O1` (stereo not drawn), the inhibition is inactive: 7.56%.
For the compound `CCOC(=O)NC(Sc1ccccc1)C(Cl)(Cl)Cl` (stereo not drawn), the inhibition was inactive: 8.94%.
As for `COC(=O)c1cc2c(s1)N=C(c1ccccc1)N(C)P2(=O)N1CCOCC1` (stereo not drawn), the figure is inactive: -11.2%; as for `CC(=O)NC(SC(=S)N(CC(C)C)CC(C)C)C(Cl)(Cl)Cl` (stereo not drawn), inactive: -17%; as for `CCC(=O)N1C2C3N(C(=O)CC)C1C1N(C(=O)CC)C(C(N1C(=O)CC)N3C(=O)CC)N2C(=O)CC`, inactive: -5.42%.
Turning to `CC(=O)NC(SC(=S)N(C)C)C(Cl)(Cl)Cl` (stereo not drawn), the inhibition was inactive: 27.8%.
With `C(Cc1nn[nH]n1)Cc1nn[nH]n1`, the inhibition was inactive: -41.9%.
For the compound `O=C(OC1CN2CCC1CC2)c1cccc(Cl)c1` (stereo not drawn), the inhibition was inactive: -22.3%.
Under `O=P(Nc1nccs1)(c1ccccc1)c1ccccc1` stands inactive: -34.2%.
With `CC(C)C(=O)NC(Sc1ccccc1)C(Cl)(Cl)Cl` (stereo not drawn), the inhibition is inactive: -0.93%.
As to `c1nnnn1CCn1cnnn1`, the inhibition was inactive: -55.3%.

For the origin of these results see PubChem BioAssay AID804 (SRMLSC, 2007).
